# C2C12 statin – suppressors of statin myotoxicity in C2C12 myotubes, primary screen, cell-based, single point, plate reader; C2C12 myotubes + simvastatin, ATP luminescence, 48 h; scaled: DMSO 0, geranylgeraniol control 100; rescue of ATP level, % at 7.49 µM; 330,000 tested, 0.78% active; AID 602340, 2012;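 active = mean ATP rescue above about 67%, or every replicate alone reaching that limit, limit read from the data, passing the limit was not always enough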;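 also: myotubes were challenged with 10 µM simvastatin during compound exposure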
# N-glyco inh – increase of ERlucT glycosylation luciferase signal, primary screen, N-linked glycosylation inhibitor project, D54 ERlucT cells, luminescence, set 2 | D54 ERlucT glycosylation luciferase reporter, 24 h; percent of 100 nM tunicamycin response | reporter increase, % at 12.5 µM | 360,000 tested, 0.23% active | AID 588692, 2011;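 active = mean luciferase reporter signal, scaled so untreated is 0 and the glycosylation-blocking control 100, at or above a set limit in every replicate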;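 also: luciferase carries N-glycosylation sites so blocking glycosylation raises the light; 0% = median of neutral control wells and 100% = median of 100 nM tunicamycin wells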
# Cneo AK release – Cryptococcus neoformans cell lysis inducers, primary screen, AK release luminescence, single concentration; C. neoformans lysis, adenylate kinase release luminescence, 4 h; normalised: neutral wells 0, clomiphene wells 100; AID 651654, 2012; 360,000 tested, 0.2% active; lysis activity, % at 15 µM;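 active = mean lysis activity across replicates of at least 80%, whatever share of replicates individually reach that level; inactive = mean lysis activity below 80%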
#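 Test system: log-phase Cryptococcus neoformans yeast cells. Input: 5 × 10^6 yeast cells/mL. Medium: fresh YPD growth medium. Doses: single dose. Incubation: static 4 h at 37 °C with compound, 1 h detection. Measured by: luminescent adenylate kinase detection reagent. Read-out: signal increase indicating cell lysis. Benchmarks: Clomiphene.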
# miR122 inh – miR-122 Renilla sensor signal increase in Huh7, primary screen, miR-122 inhibitor project, cell-based, single point, plate reader; Huh7 miR-122 Renilla luciferase sensor, 48 h; neutral wells = 0, positive control = 100; activation (reporter increase), % at 12.5 µM; 340,000 tested, 0.3% active;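 active = mean replicate activation score at least 90 and every replicate individually at or above 90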;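 also: higher luciferase means less miR-122 activity so hits act as miR-122 inhibitors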
# Yeast UUG start – alters start codon recognition fidelity in yeast | S. cerevisiae UUG-firefly luciferase reporter, luminescence/redox ratio | activity score, % at 18.7 µM | 350,000 compounds, 0.13% hits | AID 602363;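 active = replicate mean at a twofold rise or more, about +100% in these data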;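 note: firefly luciferase made from a UUG start codon reports start codon fidelity; reporter light over untreated wells divided by growth signal over untreated wells; some hits fall short of that in this replicate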
# An asterisk follows results filed as active; . = no result; [ ] = another dose, or the depositor's remark. Only some compounds are listed: those with a hit (about 1.2% of all), similar ones and a draw of the others.
# Letter code: A = C2C12 statin; B = N-glyco inh; C = Cneo AK release; D = miR122 inh; E = Yeast UUG start
1) CCCOc1ccc(C(O)(CCN2CCCCC2)c2ccccc2OC)cc1 (stereo not drawn)
  A: 87.0*; B: -1.0; C: 4.3; D: 0.4; E: -6.9
2) COc1ccc(Br)cc1CN(C)CC(=O)Nc1c(Cl)cccc1Cl
  A: .; B: -0.9; C: 3.4; D: -4.7; E: -32.2
3) COc1ccc(-c2noc(CCCC(=O)NCCc3ccccc3)n2)cc1OC
  A: 150.9*; B: 0.2; C: 0.2; D: 0.3; E: -0.7
4) COc1ccccc1S(=O)(=O)Nc1ccc2c(c1)OC[C@H](C)NC[C@H](C)[C@H](OC)CN(C)C2=O
  A: 7.9; B: .; C: -1.5; D: -5.2[16.7 µM]; E: -8.0
5) O=C(CSc1nnc(CNc2ccc(F)cc2)n1Cc1ccccc1)N1CCOCC1
  A: 101.9*; B: 1.3; C: 11.2; D: -4.3; E: -9.2
6) O=C(CSc1nnc(CNc2ccc(F)cc2)n1Cc1ccccc1)NCc1ccco1
  A: 1.2; B: -0.2; C: 1.5; D: -0.9; E: -20.0
7) CS(=O)(=O)N1CCSC1c1ccc(Br)cc1 (stereo not drawn)
  A: 6.8; B: 1.9; C: -1.1; D: -5.1; E: -12.8
8) COc1ccc(Br)cc1C1SCCN1S(C)(=O)=O (stereo not drawn)
  A: 118.2*; B: -1.8; C: -0.2; D: 0.8; E: -9.1
9) CCc1c(C)c2ccc(OCC(=O)N(C)C)c(C)c2oc1=O
  A: 0.5; B: 3.3; C: 4.1; D: -2.4; E: -16.2
10) Cc1c(C)c2ccc(OCC(=O)N(C)C)c(C)c2oc1=O
  A: 97.9*; B: 3.9; C: -4.0; D: -3.4; E: -25.9
11) O=C(CCCOc1ccccc1)N1CCCCC1
  A: 94.3*; B: -17.6; C: 1.5; D: -5.1; E: -10.0
12) C[C@@H]1CN(S(=O)(=O)C(C)(C)C)[C@@H](CCO)/C1=C\c1ccccc1
  A: 10.7; B: -1.7; C: -2.0; D: -6.1; E: -8.3
13) CC(C)(C)S(=O)(=O)N1C[C@H]2CC/C=C\C/C(c3ccccc3)=C\2[C@@H]1CCO
  A: -2.7; B: 38.0*; C: 4.3; D: 3.6; E: -4.7
14) C[C@@H]1CCCCO[C@@H](CN(C)S(=O)(=O)c2ccccc2)[C@@H](C)CN([C@@H](C)CO)C(=O)c2cc(NC(=O)CCC(F)(F)F)ccc2O1
  A: .; B: .; C: 51.6; D: 9.8[16.7 µM]; E: 14.5
15) CN(C)Cc1ccccc1CNC(=O)c1cccc(S(=O)(=O)Nc2ccc3c(c2)OCO3)c1
  A: -10.7; B: 1.1; C: 2.5; D: 116.8*; E: 1.4
16) CCN(CC)Cc1ccccc1CNC(=O)c1cccc(S(=O)(=O)Nc2ccc3c(c2)OCO3)c1
  A: -17.6; B: -0.5; C: -2.5; D: .; E: 2.4
17) Cc1ccc2[nH]c(=O)c(NC(N)=S)nc2c1
  A: 101.1*; B: 8.4; C: -1.7; D: -3.0; E: -12.3
18) Cc1ccccc1NC(=O)CCN1C(=O)CSC1=O
  A: 9.7; B: 1.0; C: -0.6; D: -8.6; E: 2.2
19) CC1=C(C(=O)Nc2ccccc2C)C(c2ccc(C)o2)N2C(=O)CSC2=N1 (stereo not drawn)
  A: 78.4*; B: 2.5; C: -4.6; D: -0.5; E: -0.4
20) O=C(c1cc(C(=O)N2CCCC2)cc([N+](=O)[O-])c1)N1CCCC1
  A: 3.5; B: 2.3; C: -3.8; D: 3.5; E: -9.4
21) C[C@H]1CN([C@@H](C)CO)C(=O)c2cc(C#CCc3ccccc3)cnc2O[C@H]1CN(C)C(=O)C1CCC1
  A: 5.5; B: .; C: -2.6; D: -13.6[16.7 µM]; E: -3.1
22) CCC(C)(C)NC(=O)CN(Cc1cccs1)C(=O)CNS(=O)(=O)c1ccc(C)cc1
  A: 83.5*; B: -2.4; C: 6.4; D: -3.9; E: -12.5
23) COc1ccc(C(=O)N2CCC(C(=O)c3ccc(F)cc3)CC2)cc1
  A: 4.4; B: -3.7; C: 1.1; D: 3.8; E: -8.2
24) COc1ccccc1C(=O)N1CCC(C(=O)c2ccc(F)cc2)CC1
  A: 83.8*; B: -5.1; C: -0.6; D: -4.6; E: 1.4
25) O=S(=O)(NCCC1=CCCCC1)c1ccccc1Br
  A: -1.2; B: 1.0; C: -6.8; D: 139.9*; E: -5.1
26) COc1ccc(C)cc1S(=O)(=O)NCCC1=CCCCC1
  A: -36.2; B: -2.3; C: 0.5; D: 93.4*; E: -4.9
27) COc1ccc(C)cc1S(=O)(=O)N1CCC(C(=O)NCCC2=CCCCC2)CC1
  A: -16.2; B: -4.1; C: -1.2; D: 8.5; E: 22.9
28) C(=Nn1cnnc1)c1ccc2c(c1)CCC2
  A: 7.5; B: 0.3; C: 81.8*; D: 1.2; E: -0.1
29) Cc1noc2ncnc(Sc3c(Cl)cccc3Cl)c12
  A: 9.6; B: 4.5; C: 2.1; D: 61.3; E: -9.9
30) Cc1noc2ncnc(Sc3ccc(Cl)cc3)c12
  A: 134.4*; B: 20.0; C: 5.6; D: 4.5; E: -10.6
31) Cc1ccc(CSc2ncnc3onc(C)c23)cc1
  A: .; B: -2.6; C: .; D: .; E: .
32) Cc1ccc(Sc2ncnc3onc(C)c23)cc1
  A: 98.1*; B: 3.5; C: -10.6; D: 3.0; E: -16.7
33) CCC1(C)Nc2ccccc2C(=O)N1O (stereo not drawn)
  A: 117.8*; B: 3.2; C: -0.1; D: 10.4; E: -2.4
34) CCOc1ccc(N2C(=O)c3ccccc3NC2(C)CC)cc1 (stereo not drawn)
  A: 0.6; B: -1.0; C: -6.2; D: -3.9; E: -5.1
35) O=C(Cn1c(=O)n(CC2CCCO2)c(=O)c2ccccc21)c1ccc(Cl)c(Cl)c1 (stereo not drawn)
  A: 80.2*; B: -0.4; C: 1.4; D: 6.5; E: -3.8
36) CNC[C@H]1OCCCC[C@@H](C)Oc2ccc(NS(=O)(=O)c3cn(C)cn3)cc2C(=O)N([C@H](C)CO)C[C@@H]1C
  A: -12.4; B: .; C: 1.5; D: 14.2[16.7 µM]; E: -5.5
37) Cc1ccc(S(=O)(=O)Nc2ccc3c(c2)C(=O)N([C@@H](C)CO)C[C@H](C)[C@H](CN(C)C(=O)NC(C)C)OCCCC[C@H](C)O3)cc1
  A: .; B: .; C: 1.6; D: -2.6[16.7 µM]; E: 9.8
38) O=C(CSc1nc(-c2ccco2)cc(C(F)(F)F)n1)N1CCSCC1
  A: 86.4*; B: -2.7; C: 0.2; D: 1.7; E: -21.6
39) O=c1cc(-c2ccco2)oc2ccc(Cl)cc12
  A: 73.2*; B: 1.6; C: -1.9; D: 0.8; E: -11.9
40) COc1ccc2oc(-c3ccco3)cc(=O)c2c1
  A: .; B: -4.7; C: -6.0; D: -1.3; E: -18.1
41) COc1ccc(N(C(=O)c2ccco2)S(=O)(=O)c2ccc(F)cc2)cc1
  A: 15.7; B: 2.0; C: -0.8; D: 4.6; E: -6.3
42) COc1ccc(N(C(=O)c2ccco2)S(=O)(=O)c2cc(OC)ccc2OC)cc1
  A: 103.8*; B: -2.6; C: -1.0; D: 24.9; E: -5.1
43) O=C(C[C@@H]1CC[C@H]2[C@@H](COC[C@H](O)CN2S(=O)(=O)c2ccccc2F)O1)NCc1ccccc1Cl
  A: -6.6; B: .; C: -0.3; D: 4.4[16.7 µM]; E: 14.7
44) COc1ccc(CN2CCn3nc(C(=O)NC(C)C)cc3C2=O)cc1
  A: .; B: -0.8; C: .; D: .; E: .
45) COc1ccc(CN2CCn3ncc(C(=O)Nc4cccc(C)c4)c3C2=O)cc1
  A: 124.0*; B: 1.8; C: -0.9; D: 6.4; E: -16.2

# Exported with two lines to a compound: 4 of the compounds above.
# Second line of a record – C2C12 statin | N-glyco inh | Cneo AK release | miR122 inh | Yeast UUG start
33) CCC1(C)Nc2ccccc2C(=O)N1O (stereo not drawn)
    117.8* | 3.2 | -0.1 | 10.4 | -2.4
39) O=c1cc(-c2ccco2)oc2ccc(Cl)cc12
    73.2* | 1.6 | -1.9 | 0.8 | -11.9
35) O=C(Cn1c(=O)n(CC2CCCO2)c(=O)c2ccccc21)c1ccc(Cl)c(Cl)c1 (stereo not drawn)
    80.2* | -0.4 | 1.4 | 6.5 | -3.8
42) COc1ccc(N(C(=O)c2ccco2)S(=O)(=O)c2cc(OC)ccc2OC)cc1
    103.8* | -2.6 | -1.0 | 24.9 | -5.1

# Carrying on.
# Letter code: A = C2C12 statin; B = N-glyco inh; C = Cneo AK release; D = miR122 inh; E = Yeast UUG start
46) Cc1cc(Cl)ccc1OCCCC(N)=O
  A: 0.2; B: 1.2; C: -0.3; D: 11.0; E: -21.3
47) Cc1cc(Cl)ccc1OCCCC(=O)NO
  A: -1.6; B: 80.8*; C: -0.9; D: -17.8; E: -14.3
48) COCCn1c(SC(C)C(=O)NCC2CCCO2)nc2sc3c(c2c1=O)CCC3 (stereo not drawn)
  A: -12.4; B: 0.1; C: 3.1; D: -2.6; E: 1.9
49) CCOc1ccc(N2C(=O)CSC23CCCCC3)cc1
  A: 95.9*; B: -1.4; C: 0.0; D: 2.3; E: -1.1
50) COc1ccc(N2C(=O)CSC23CCCCC3)cc1
  A: -36.2; B: 0.7; C: -2.5; D: -4.1; E: 37.2

# From PubChem
